One series relates to N[C@@H](CO)C(=O)O. Nature of the series: purified protein. The following applies: co-substrate homocysteine (standard assay 40 mM D,L-homocysteine), 0.4 mM PLP, Tris-HCl pH 8.4, 37°C, 45 min.
A further series concerns N[C@@H](CCS)C(=O)O. The experiment in a line: purified protein. The following applies: co-substrate L-serine (standard assay 20 mM), D,L-homocysteine used in assay method, 0.4 mM PLP, Tris-HCl pH 8.4, 37°C, 45 min.

The term Km denotes the substrate concentration at which the rate is half of its maximum. As for “rTrCβS (recombinant T. rangeli cystathionine β-synthase) (Trypanosoma rangeli; T2A)”, the Km amounted to 1.702 ± 0.11 mM in the series on N[C@@H](CO)C(=O)O and 7.301 ± 1.9 mM in the series with N[C@@H](CCS)C(=O)O.

These data come from publication PMC4005819.
